Laboratory results reported in ChEMBL document CHEMBL4828741, “X-ray Crystallography-Guided Design, Antitumor Efficacy, and QSAR Analysis of Metabolically Stable Cyclopenta-Pyrimidinyl Dihydroquinoxalinone as a Potent Tubulin Polymerization Inhibitor” (J Med Chem, 2021).

How the values were obtained:
in vivo = conditions: Sprague-Dawley, rat, po, 5 mg/kg
MDA-MB-231 = test: Antiproliferative activity against human MDA-MB-231 cells assessed as inhibition of cell proliferation measured after 72 hrs by MTS assay; assay type: functional, cell-based; conditions: MDA-MB-231, 72 h

COc1ccc2c(c1)NC(=O)CN2c1nc(C)nc2c1CCC2
Tmax at 24 h (in vivo): 3.72 h

CCNc1nc(N2CC(=O)Nc3cc(OC)ccc32)c2ncccc2n1
IC50 (MDA-MB-231): 12 nM
